Data on one compound can be found in PMC5386672, “Structure-guided design of purine-based probes for selective Nek2 inhibition” (Oncotarget, 2016).

pIC50: −log10 of the molar value.

The test has as its target CDK2 (Homo sapiens, UniProt P24941). The test can be described thus: CDK2 kinase inhibition assay. The class given is biochemical. The conditions noted are these: 12.5 μM ATP.

In general, pIC50 refers to −log10 of the IC50, conventionally taken in molar units.

Regarding `c1ccc(Nc2nc(OCC3CCCCC3)c3nc[nH]c3n2)cc1` [2-aminophenyl-6-(cyclohexylmethoxy)-9H-purine], the pIC50 is 6.00.
